Test results published in ChEMBL document CHEMBL2146398, “Novel interleukin-5 inhibitors based on hydroxyethylaminomethyl-4H-chromen-4-one scaffold” (Bioorg Med Chem, 2012).

Molecular target: T1, Interleukin-5 (Mus musculus) (UniProt P04401)
T1 sequence (whole entry): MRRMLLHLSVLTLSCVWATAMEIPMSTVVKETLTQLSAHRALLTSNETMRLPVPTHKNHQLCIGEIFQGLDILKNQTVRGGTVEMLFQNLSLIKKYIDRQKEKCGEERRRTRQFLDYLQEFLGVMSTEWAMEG
Assay: Inhibition of IL-5 in mouse Y16 cells at 30 uM after 48 hrs by WST1 assay
Type: cell-based
Summary of the method: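 IL-5-dependent pro-B Y16 cells cultured 48 h with 3 units/mL mIL-5, with or without test sample. Proliferation read as cell metabolism by WST-1 reduction. […] Values are means of three independent experiments.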

Work on CCCC1O[C@@H]2C[C@H]3[C@@H]4CCC5=CC(=O)C=C[C@]5(C)[C@H]4[C@@H](O)C[C@]3(C)[C@]2(C(=O)CO)O1 (stereo partly specified) yielded an inhibition of 55.3%.
